Screening results (PubChem BioAssay)
CAL PDZ FP-1: human CAL PDZ-peptide interaction inhibition; inhibition, % at 20 µM; 330,000 compounds, 0.02% hits; purified CAL PDZ, TMR-peptide fluorescence polarization, 1 h; Q9HD26;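 active = highest replicate inhibition of at least 40%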;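 also: plate controls were DMSO neutral control wells for no effect and unlabeled competitor peptide control wells for full effect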
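System: purified tagged CAL PDZ domain construct (CerCALP). Schedule: 1 h incubation at room temperature before polarization reading. Medium: 25 mM sodium phosphate pH 7.4, 150 mM NaCl, TCEP, IgG, Thesit. Read-out: percent inhibition from loss of millipolarization. Measured by: FP readout, S and P plane fluorescence. Probe or stimulus: fluorescent TMR peptide probe.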
Vif imaging: HIV Vif inhibition; HEK293T cells, Vif self-association by quenched fluorescence, imaging, 24 h; inhibition, % at 7.49 µM; 340,000 compounds, 0.35% hits; AID 602346; in the data active = inhibition above about 50%, passing the limit was not always enough
PglD DTNB: blocks C. jejuni PglD acetyltransferase activity; AID 602405; purified PglD enzyme, DTNB colorimetric CoA detection; 360,000 compounds, 0.098% hits; inhibition, % at 12.5 µM; in the data active = inhibition above about 16%, passing the limit was not always enough
ARNT TACC3 PPI: disruptors of human ARNT/TACC3 interaction. AlphaScreen His-ARNT PAS-B/GST-TACC3 binding, luminescence; TACC3 fragment carries E629A point mutation. inhibition, % at 9.99 µM. 390,000 compounds, 0.66% hits;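 active = mean inhibition of replicates at least 50% and at least half of replicates each reaching 50%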;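 also: 0% = complete ARNT plus TACC3 wells and 100% = ARNT alone without TACC3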
UUG fidelity: modulators of yeast start codon fidelity, primary screen, whole organism, S. cerevisiae, single point, plate reader; S. cerevisiae UUG-firefly luciferase reporter, luminescence/redox ratio; activity score, % at 18.7 µM; actives 0.13% (n = 350,000); AID 602363, 2012;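 active = replicate mean at a twofold rise or more, about +100% in these data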;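 also: firefly luciferase made from a UUG start codon reports start codon fidelity; reporter light over untreated wells divided by growth signal over untreated wells; some hits fall short of that in this replicate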
CAL PDZ FP-2: blocks peptide binding to the human CAL PDZ domain; purified CAL PDZ, TMR-peptide fluorescence polarization, 1 h; 300,000 compounds, 0.92% hits; inhibition, % at 24.9 µM; Q9HD26;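 active = mean inhibition of at least 30% with at least half of replicates also reaching 30%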;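 also: 0% = DMSO neutral control and 100% = excess unlabeled competitor peptide PRC23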
* marks the source's active call; other numbers are inactive results; . = not tested or not shown. A selection: hits, their analogues and other compounds. The true share with any hit is near 1.6%.

Fields – CAL PDZ FP-1	Vif imaging	PglD DTNB	ARNT TACC3 PPI	UUG fidelity	CAL PDZ FP-2
1) CCCCCCC(=O)Nc1ccc(Br)cn1
 : -2	1	3	-11	9	63*
2) O=C(Nc1ccc2nc(-c3cccs3)[nH]c2c1)c1cccs1
 : -3	-7	2	.	-22	-2
3) O=C(Nc1ccc(-c2nc3ccc(NC(=O)c4cccs4)cc3[nH]2)cc1)c1cccs1
 : -2	80*	.	0	.	0
4) CCOC(=O)C1=CN(Cc2ccco2)S(=O)(=O)N(CC)C1c1ccc(C(F)(F)F)cc1 (stereo not drawn)
 : 0	-3	-1	0	5	79*
5) CCOC(=O)C1=CN(Cc2ccco2)S(=O)(=O)N(C)C1c1ccccc1 (stereo not drawn)
 : 0	1	-3	3	-8	0
6) CCOC(=O)c1c(NC(=O)COC(=O)CNC(=O)c2ccco2)sc(C)c1C
 : -3	.	.	5	.	-7
7) COC(=O)c1c(NC(=O)COC(=O)CNC(=O)c2ccco2)sc(C)c1C
 : -1	8	.	4	.	58*
8) COc1ccc(S(=O)(=O)N2CC[C@@H]3[C@@H](CO)Nc4ccc(-c5cccc(C#N)c5)cc4[C@@H]32)cc1
 : .	.	1	-2	-5	.
9) COc1ccc(-c2ccc(C(c3c(C)[nH][nH]c3=O)c3c(C)[nH][nH]c3=O)o2)c([N+](=O)[O-])c1
 : 0	1	.	4	.	5
10) Cc1[nH][nH]c(=O)c1C(c1ccc(-c2ccc(Cl)c(Cl)c2)o1)c1c(C)[nH][nH]c1=O
 : -1	0	1	61*	-30	-4
11) CC(C)CC#Cc1cnc2c(c1)C(=O)N([C@H](C)CO)C[C@@H](C)[C@@H](CN(C)S(=O)(=O)c1cn(C)cn1)O2
 : .	.	-3	9	-2	.
12) O=C(O)c1ccccc1CSc1nnnn1-c1ccccc1
 : .	-5	-10	6	-14	81*
13) CCN1CCCc2cc(CN(CCN3CCOCC3)C(=S)Nc3ccccc3C)ccc21
 : 0	-4	.	-2	.	17
14) CCN1CCCc2cc(CN(CCN3CCOCC3)C(=S)Nc3cccc(C)c3)ccc21
 : -1	-5	-1	33	3	53*
15) CCC(=O)N1[C@H](CO)[C@H](c2ccc(-c3ccc(F)cc3)cc2)[C@@H]1CN(C)C(C)=O
 : .	.	0	0	0	.
16) O=C(C[C@@H]1CC[C@@H]2[C@H](COC[C@H](O)CN2Cc2ccc(Oc3ccccc3)cc2)O1)Nc1nccs1
 : .	.	0	-2	.	.
17) Cc1cc(C(=O)NNC(=O)Nc2ccc(Cl)cc2)no1
 : 0	4	4	-4	-16	.
18) CCCCC#Cc1ccc(C(=O)NNC(=O)Nc2cc(Cl)cc(Cl)c2)o1
 : 0	-12	.	0	.	30*
19) N=C1SCC(=O)N1c1ncc(Cc2ccccc2Cl)s1
 : 0	0	-3	26	0	30*
20) O=C(Nc1cccc(C(=O)N2CCOCC2)c1)c1ccccc1
 : -1	-1	-3	-3	-10	-2
21) Cc1ccc(C(=O)Nc2cccc(C(=O)N3CCOCC3)c2)cc1Cl
 : -2	.	7	-13	10	63*
22) COc1ccc(CN(C)C[C@@H]2Oc3c(NC(=O)c4cc(C)nn4C)cccc3C(=O)N([C@H](C)CO)C[C@H]2C)cc1
 : .	.	1	-11	0	.
23) CCC(=O)N(C)C[C@@H]1Oc2ncc(-c3ccccc3F)cc2C(=O)N([C@H](C)CO)C[C@@H]1C
 : .	.	-4	2	-5	.
24) Cc1ccc(NC(=O)C2CC(=O)N(CCc3ccccc3)C2)cc1Cl (stereo not drawn)
 : -3	2	-6	-3	-7	80*
25) COc1cc(NC(=O)C2CC(=O)N(CCc3ccccc3)C2)cc(OC)c1 (stereo not drawn)
 : -3	.	-8	1	-2	4
26) CN(Cc1c(F)cccc1Cl)C(=O)C1CC(=O)N(CCc2ccccc2)C1 (stereo not drawn)
 : 5	2	.	-3	.	78*
27) COc1ccc(NC(=O)N(C)C[C@@H]2Oc3c(NC(=O)c4ccncc4)cccc3C(=O)N([C@@H](C)CO)C[C@H]2C)cc1
 : .	.	-2	.	-8	.
28) COc1ccc(CC(=O)Nc2ncc([N+](=O)[O-])s2)cc1OC
 : 0	-8	-4	18*	-14	0
29) COc1ccc(CCC(=O)Nc2ncc(C)s2)cc1OC
 : -1	-21	-5	11	-9	50*
30) COc1ccc(CC(=O)Nc2nccs2)cc1OC
 : -1	.	.	2	.	3

5 entries from above, tab-delimited.
cpd	molecule	CAL PDZ FP-1	Vif imaging	PglD DTNB	ARNT TACC3 PPI	UUG fidelity	CAL PDZ FP-2
7	COC(=O)c1c(NC(=O)COC(=O)CNC(=O)c2ccco2)sc(C)c1C	-1	8	.	4	.	58*
8	COc1ccc(S(=O)(=O)N2CC[C@@H]3[C@@H](CO)Nc4ccc(-c5cccc(C#N)c5)cc4[C@@H]32)cc1	.	.	1	-2	-5	.
9	COc1ccc(-c2ccc(C(c3c(C)[nH][nH]c3=O)c3c(C)[nH][nH]c3=O)o2)c([N+](=O)[O-])c1	0	1	.	4	.	5
10	Cc1[nH][nH]c(=O)c1C(c1ccc(-c2ccc(Cl)c(Cl)c2)o1)c1c(C)[nH][nH]c1=O	-1	0	1	61*	-30	-4
11	CC(C)CC#Cc1cnc2c(c1)C(=O)N([C@H](C)CO)C[C@@H](C)[C@@H](CN(C)S(=O)(=O)c1cn(C)cn1)O2	.	.	-3	9	-2	.

Other results follow.
Fields – CAL PDZ FP-1	Vif imaging	PglD DTNB	ARNT TACC3 PPI	UUG fidelity	CAL PDZ FP-2
31) COc1ccc(CN(C)C[C@H]2Oc3ccc(NC(=O)Nc4c(C)noc4C)cc3CC(=O)N([C@@H](C)CO)C[C@@H]2C)cc1
 : .	.	1	-7	-3	.
32) CC1=Nc2cc(C(=O)O)ccc2Sc2c(C)ccc(C)c21
 : -1	69*	.	.	.	-1
33) CC1=Nc2cc(C(=O)N3CCCC3)ccc2Sc2c(C)ccc(C)c21
 : 0	-1	3	-6	22	-3
34) CC(=O)C[C@H](O)CC(=O)[C@H]1OC(=O)[C@@H](C)CCCCc2ccccc21
 : 1	2	0	1	9	-3
35) CC[C@@H]1CCCCc2ccccc2[C@H](C(=O)C[C@H](O)CC(C)=O)OC1=O
 : -1	-2	-5	0	-8	54*
36) O=C(C[C@@H]1C=C[C@H](NC(=O)c2ccc(F)cc2)[C@@H](CO)O1)NCCc1ccncc1
 : .	.	-4	5	-16	.
37) CCNc1nc(NCC)nc(C(=O)Nc2ccccc2)n1
 : -1	-6	7	96*	-29	-3
38) CCNc1nc(NCC)nc(OCCOC(=O)Nc2ccccc2)n1
 : -1	-13	-1	8	-11	.
39) C[C@@H]1CN([C@@H](C)CO)C(=O)c2cc(NS(C)(=O)=O)ccc2O[C@H]1CN(C)Cc1ccc2c(c1)OCO2
 : .	.	10	-5	.	.
40) CC1(S(=O)(=O)O)CC(=O)c2ccccc2C1=O (stereo not drawn)
 : 1	174*	0	9	-27	-3
41) CO[C@H]1CN(C)C(=O)c2ccc(NS(=O)(=O)c3cn(C)cn3)cc2OC[C@H](C)NC[C@H]1C
 : .	.	2	-1	.	.
42) CC(C)NC(=O)NC(=O)COC(=O)c1ccccc1Oc1ccccc1
 : .	-11	-3	-1	4	76*
43) O=C(Cc1c(C(=O)O)[nH]c2ccccc12)NCCN1CCN(c2cccc(Cl)c2)CC1
 : 0	7	2	1	-6	62*
44) CCN(C(=O)CCCC(=O)N(CC)c1ccccc1)c1ccccc1
 : -1	-2	.	-4	.	63*
45) CCOC(=O)CCC(=O)N(CCN(C(=O)CCC(=O)OCC)c1ccccc1)c1ccccc1
 : 0	0	-3	3	-10	4
46) CCN1[C@@H]2c3ccc(-c4ccc(F)cc4)c(=O)n3C[C@@H]2[C@@H](CO)[C@@H]1C(=O)NCCc1cn(C)cn1
 : .	.	-2	2	.	.
47) CN(C)c1ccc(Nc2nc(N)c3ccccc3n2)cc1
 : 3	-2	1	50*	-80	-6
48) Nc1nc(Nc2ccccc2)nc2ccccc12
 : -3	-2	0	3	-37	0
